Assay outcomes deposited in PubChem by Broad Institute.
C2C12 statin – suppressors of statin myotoxicity in C2C12 myotubes, primary screen, cell-based, single point, plate reader; C2C12 myotubes + simvastatin, ATP luminescence, 48 h; scaled: DMSO 0, geranylgeraniol control 100; rescue of ATP level, % at 7.49 µM; 330,000 tested, 0.78% active; AID 602340, 2012;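 active = mean ATP rescue above about 67%, or every replicate alone reaching that limit, limit read from the data, passing the limit was not always enough; inconclusive = no clear call, values can overlap the other calls; inactive = mean under the limit and some replicate under it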;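 note: myotubes were challenged with 10 µM simvastatin during compound exposure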
miR-122 sensor – miR-122 Renilla sensor signal increase in Huh7, primary screen, miR-122 inhibitor project, cell-based, single point, plate reader | activation (reporter increase), % at 12.5 µM | Huh7 miR-122 Renilla luciferase sensor, 48 h; neutral wells = 0, positive control = 100 | AID 602342, 2012 | 340,000 tested, 0.3% active;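 active = mean replicate activation score at least 90 and every replicate individually at or above 90; inconclusive = only one of the two criteria met; inactive = neither criterion met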;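 note: higher luciferase means less miR-122 activity so hits act as miR-122 inhibitors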
Yeast UUG start – alters start codon recognition fidelity in yeast. 350,000 tested, 0.13% active. activity score, % at 18.7 µM. S. cerevisiae UUG-firefly luciferase reporter, luminescence/redox ratio;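 active = replicate mean at a twofold rise or more, about +100% in these data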;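 also: firefly luciferase made from a UUG start codon reports start codon fidelity; reporter light over untreated wells divided by growth signal over untreated wells; some hits fall short of that in this replicate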
Cneo AK release – Cryptococcus neoformans cell lysis inducers, primary screen, AK release luminescence, single concentration; C. neoformans lysis, adenylate kinase release luminescence, 4 h; normalised: neutral wells 0, clomiphene wells 100; lysis activity, % at 15 µM; 360,000 tested, 0.2% active; AID 651654, 2012;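 active = mean lysis activity across replicates of at least 80%, whatever share of replicates individually reach that level; inactive = mean lysis activity below 80%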
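Material – log-phase Cryptococcus neoformans yeast cells · Input – 5 × 10^6 yeast cells/mL · Medium – fresh YPD growth medium · Doses – single compound concentration per well · Timing – static 4 h at 37 °C with compound, 1 h detection · Detection – adenylate kinase release luminescence · Read-out – signal increase indicating cell lysis · Control set – Clomiphene as positive lysis control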
N-glyco inh – increase of ERlucT glycosylation luciferase signal, primary screen, N-linked glycosylation inhibitor project, D54 ERlucT cells, luminescence, set 2. D54 ERlucT glycosylation luciferase reporter, 24 h; percent of 100 nM tunicamycin response. reporter increase, % at 12.5 µM. 360,000 tested, 0.23% active;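 active = mean luciferase reporter signal, scaled so untreated is 0 and the glycosylation-blocking control 100, at or above a set limit in every replicate; inconclusive = mean reaches the limit but not every replicate does; inactive = mean below the limit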;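 note: luciferase carries N-glycosylation sites so blocking glycosylation raises the light; 0% = median of neutral control wells and 100% = median of 100 nM tunicamycin wells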
The depositor's hits bear a star; ? = inconclusive; · = no result given; [ ] = remark or other dose. Most compounds without a hit are left out; they make up all but 1.2% or so of the library.

Short forms – A = C2C12 statin; B = miR-122 sensor; C = Yeast UUG start; D = Cneo AK release; E = N-glyco inh
1: COc1ccc(S(=O)(=O)Nc2ccc3c(c2)OCCO3)cc1Cl
  A = 114*; B = 46; C = ·; D = ·; E = 2

2: COc1cccc(NS(=O)(=O)c2ccc3c(c2)N(C(C)=O)CCO3)c1
  A = 12; B = 195*; C = -10; D = -1; E = -2

3: COc1cccc(CN2CC(C(=O)NCCCCc3ccccn3)CCC2=O)c1 (stereo not drawn)
  A = 7; B = -1; C = 5; D = -3; E = 0

4: Cc1ccc(NS(=O)(=O)c2ccc3c(c2)N(C)CCO3)cc1
  A = -2; B = ·; C = -14; D = 1; E = 1

5: O=S(=O)(Nc1ccc(Cl)cc1)c1ccc2c(c1)CCO2
  A = ·; B = 123*; C = -9; D = 2; E = -1

6: Cc1cccc(NS(=O)(=O)c2ccc3c(c2)OCCO3)c1
  A = 0; B = 119*; C = -13; D = 0; E = 0

7: CC(=O)N1CCOc2ccc(S(=O)(=O)NCCc3cccc(C)c3)cc21
  A = 9; B = 116*; C = 2; D = 0; E = 1

8: Cc1ccc(S(=O)(=O)Nc2ccc3c(c2)OCCO3)cc1C
  A = 11; B = ·; C = ·; D = ·; E = -8

9: CCc1cccc(NS(=O)(=O)c2ccc3c(c2)N(C)CCO3)c1
  A = -2; B = 172*; C = 10; D = 2; E = -3

10: CC(=O)N1CCOc2ccc(S(=O)(=O)NCCc3ccccc3)cc21
  A = 3; B = 4; C = -3; D = -1; E = 0

Results in N-glyco inh, miR-122 sensor and C2C12 statin, for some of the entries so far:
nr	compound	N-glyco inh	miR-122 sensor	C2C12 statin
6	Cc1cccc(NS(=O)(=O)c2ccc3c(c2)OCCO3)c1	0	119*	0
7	CC(=O)N1CCOc2ccc(S(=O)(=O)NCCc3cccc(C)c3)cc21	1	116*	9
8	Cc1ccc(S(=O)(=O)Nc2ccc3c(c2)OCCO3)cc1C	-8	·	11
9	CCc1cccc(NS(=O)(=O)c2ccc3c(c2)N(C)CCO3)c1	-3	172*	-2

Continuation.
Short forms – A = C2C12 statin; B = miR-122 sensor; C = Yeast UUG start; D = Cneo AK release; E = N-glyco inh
11: O=C(C[C@@H]1C[C@H]2c3cc(NC(=O)C4CCOCC4)ccc3O[C@H]2[C@H](CO)O1)NCc1cc(F)ccc1F
  A = 0; B = -1[16.7 µM]; C = ·; D = 10; E = ·

12: c1ccc(CCNCc2ccco2)nc1
  A = -4; B = -2; C = -23; D = 0; E = 0

13: C[C@H](CO)N1C[C@H](C)[C@H](CN(C)S(=O)(=O)c2cccs2)Oc2ccc(NC(=O)c3ccncc3)cc2C1=O
  A = -3; B = 3[16.7 µM]; C = -6; D = 1; E = ·

14: CC(=O)N1CCOc2ccc(S(=O)(=O)Nc3cccc(C)c3)cc21
  A = 6; B = 130*; C = ·; D = ·; E = 0

15: CC(=O)c1ccc(NS(=O)(=O)c2ccc3c(c2)N(C(C)=O)CCO3)cc1
  A = 16; B = ·; C = -10; D = 1; E = 1

16: Cc1ccc(S(=O)(=O)N2CCN(C(=O)COC(=O)c3cc(C)oc3C)CC2)cc1
  A = 98*; B = -2; C = -16; D = 0; E = -1

17: C[C@@H]1CN([C@H](C)CO)C(=O)c2cc(NC(=O)c3ccncc3)ccc2O[C@@H](C)CCCCO[C@H]1CN(C)Cc1ccncc1
  A = ·; B = 2[16.7 µM]; C = ·; D = ·; E = ·

18: COc1ccc2[nH]c(=O)c(CN(C)C(=O)COc3ccccc3)cc2c1
  A = 72*; B = 0; C = -17; D = 3; E = 1

19: COc1ccc(C(=O)NCC(=O)OCC(=O)c2ccc3c(c2)OCCO3)cc1
  A = ·; B = -1; C = -19; D = -2; E = 1

20: CC(CCc1ccccc1)NC(=O)c1ccc(NC(=O)c2ccccc2)cc1 (stereo not drawn)
  A = -35; B = 1; C = 2; D = 0; E = 26*

21: COc1ccc(Nc2nnc(-c3ccc(C)cc3)c3ccccc23)cc1C(=O)N1CCCCC1
  A = -8; B = -17; C = 0; D = 10; E = -8

22: Cc1cccc(Nc2nnc(-c3ccc(C(=O)N4C[C@H]5C[C@H](C4)c4cccc(=O)n4C5)cc3)c3ccccc23)c1
  A = 114*; B = -3; C = 1; D = 6; E = -4

23: COCCNC(=O)Nc1ccc2nc(-c3cccs3)c(-c3cccs3)nc2c1
  A = 125*; B = -8; C = -14; D = 4; E = -2

24: O=C(Nc1ccc2nc(-c3cccs3)c(-c3cccs3)nc2c1)NC1CC1
  A = 3; B = ·; C = -6; D = -1; E = -6

25: Cc1nc(SCc2ccccc2C#N)n[nH]1
  A = 1; B = -13; C = -25; D = 0; E = -1

26: N#Cc1ccccc1CSc1nc(N2CCCCC2)nc(N2CCCCC2)n1
  A = 117*; B = 6; C = 5; D = 1; E = -3

27: COc1ccc(C2=NNC(=O)C2(C)Br)cc1 (stereo not drawn)
  A = ·; B = ·; C = ·; D = ·; E = -1

28: COC(=O)C(C)Sc1nc2c(cnn2-c2ccc(C)cc2)c(=O)[nH]1 (stereo not drawn)
  A = 106*; B = -5; C = -9; D = 3; E = 3

29: Cc1ccc(C(C(=O)NC2CCCC2)N(Cc2cccs2)C(=O)CNC(=O)c2cccs2)o1 (stereo not drawn)
  A = 136*; B = 1; C = 1; D = 2; E = -3

30: CCCNC(=O)N1C[C@H](C)[C@H](OC)CN(C)C(=O)c2ccc(NC(=O)CCC)cc2OC[C@H]1C
  A = 6; B = ·; C = 18; D = -5; E = ·

31: CCCn1c2ccccc2c2cnn(CC(=O)N3CCN(C4CCCCC4)CC3)c(=O)c21
  A = 0; B = -4; C = 3; D = 0; E = 1

32: CCOC(=O)c1c(NC(=O)Cc2cccs2)sc(C(=O)NC2CCCCC2)c1C
  A = 78*; B = -2; C = -5; D = -4; E = 2

33: O=C(Nc1cccc(NC(=O)c2cccs2)c1)c1ccc([N+](=O)[O-])o1
  A = 55; B = 79; C = -24; D = -10; E = 59*

34: O=C(Nc1ccc(S(=O)(=O)N2CCOCC2)cc1)c1ccc([N+](=O)[O-])o1
  A = 88*; B = 29; C = 1; D = 2; E = 13

35: CCCCOCCCNC(=S)Nc1ccc(S(=O)(=O)N2CCOCC2)cc1
  A = -9; B = 176*; C = -24; D = -1; E = 3

36: CC(=O)Nc1ccc2nc(NC(=O)c3ccco3)sc2c1
  A = -11; B = 17; C = -12; D = -4; E = -8

37: CC(=O)Nc1ccc2nc(NC(=O)c3ccc([N+](=O)[O-])o3)sc2c1
  A = 114*; B = ·; C = -14; D = 0; E = 4

38: C[C@H](CO)N1C[C@H](C)[C@@H](CN(C)S(C)(=O)=O)Oc2ccc(NS(=O)(=O)c3ccccc3)cc2CC1=O
  A = 1; B = 2[16.7 µM]; C = -4; D = 14; E = ·

39: O=C(Nc1ccc(Cc2ccncc2)cc1)c1ccc([N+](=O)[O-])o1
  A = ?; B = -5; C = -5; D = 0; E = 34*

40: COCCN(C(=S)Nc1cccc(C)c1)C(C)c1cccnc1 (stereo not drawn)
  A = 15; B = -2; C = 0; D = -3; E = 2

41: COc1ccc(N(C(=O)Cn2nnc3ccccc32)C(C(=O)NCc2ccco2)c2cccnc2)cc1 (stereo not drawn)
  A = 81*; B = -2; C = -17; D = 0; E = 1

42: O=C(NCc1ccco1)C(c1cccnc1)N(C(=O)Cn1nnc2ccccc21)c1ccccc1 (stereo not drawn)
  A = ·; B = 5; C = -19; D = 0; E = 0

43: CCCNC(=O)N1[C@H](CO)[C@H](c2ccccc2)[C@@H]1CNC(=O)c1ccccc1
  A = 5; B = -7[16.7 µM]; C = 25; D = 0; E = ·

44: c1ccc(N=Nc2ccc3cccccc2-3)cc1
  A = ·; B = ·; C = -28; D = -4; E = 26*

45: O=C(Cn1c(=O)[nH]n(-c2ccccc2)c1=O)N1CCCc2ccccc21
  A = 86*; B = 1; C = -1; D = -3; E = 1

46: O=C(CN1CCN(Cc2ccccc2)CC1)N1CCCc2ccccc21
  A = -3; B = 9; C = -5; D = 0; E = 3

47: NC(=O)COC(=O)C(Cc1ccccc1)NS(=O)(=O)c1ccccc1F (stereo not drawn)
  A = 109*; B = 4; C = 0; D = 0; E = 2

48: O=C(Nc1ccccc1Cl)c1cc(C2CCCN(C(=O)c3ccccc3)C2)on1 (stereo not drawn)
  A = 2; B = 0; C = 0; D = -4; E = -1
